Data on two compounds can be found in ChEMBL document CHEMBL1140336, “Synthesis, structure-activity relationships, and biological evaluation of fatty alcohol phosphates as lysophosphatidic acid receptor ligands, activators of PPARgamma, and inhibitors of autotaxin” (J Med Chem, 2005).

In the assay the target is T1, Lysophosphatidic acid receptor 3 (Homo sapiens) (UniProt Q9UBY5).
T1 sequence (whole entry): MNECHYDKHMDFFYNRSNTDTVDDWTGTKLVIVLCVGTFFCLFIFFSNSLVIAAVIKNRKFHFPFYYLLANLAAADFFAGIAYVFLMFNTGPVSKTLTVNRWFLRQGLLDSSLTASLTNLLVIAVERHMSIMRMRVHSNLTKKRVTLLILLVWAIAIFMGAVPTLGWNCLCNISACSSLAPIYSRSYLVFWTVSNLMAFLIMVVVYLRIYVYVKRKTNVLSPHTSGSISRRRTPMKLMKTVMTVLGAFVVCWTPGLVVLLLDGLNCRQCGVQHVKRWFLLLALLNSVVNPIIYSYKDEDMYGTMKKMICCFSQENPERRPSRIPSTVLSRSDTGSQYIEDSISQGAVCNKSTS
The assay is described as follows: Maximal efficacy against LPA3 receptor expressed in RH7777 rat hepatoma cells. It counts as functional, cell-based.

The term Emax denotes the size of the effect at its maximum, as opposed to the concentration needed. As to `CCCCCCCCCCCCCCCC(=O)N[C@@H](COP(=O)(O)O)C(=O)O`, the Emax is 100%.

Consider `CCCCCCCC/C=C/CCCCCCCCOP(O)(O)=S`, for which the Emax is 78%.
